In patent publication US20260159854A1, “NOVEL CARRIERS FOR NUCLEIC ACID AND/OR PROTEIN DELIVERY” (LUDWIG-MAXIMILIANS-UNIVERSITÄT MÜNCHEN, priority 2022, published 2026) one finds Z-average and Pdl data, which are given here for 2 substances.

This data set is described as follows: Particle size, polydispersity and zeta potential measurement (DLS, ELS). Format: physicochemical. How it is done: 6.6 Particle Size and Zeta Potential Measurement for pDNA, mRNA, siRNA, Cas9 mRNA/sgRNA and Cas9 mRNA/sgRNA/ssDNA Polyplexes as Well as mRNA LNPs
Measurements of size and zeta potential were performed with a Zetasizer Nano ZS (Malvern Instruments, Malvern, Worcestershire, U.K.) in a folded capillary cell (DTS1070) by dynamic and electrophoretic laser-light scattering (DLS, ELS). […] Samples were measured three times with six sub runs per measurement. For measurement of the zeta potential, all samples were diluted to 800 μL with HBG or HEPES (for siRNA polyplexes) directly before measurement. Parameters were identical to the size measurement apart from an equilibration time of 60 sec. Three measurements with 15 sub runs lasting 10 sec each were performed, and zeta potentials were calculated by the Smuchowski equation.

“[K(12Oc)]2-Stp2-[K(12Oc)]2 [compound 1719]” returned a Z-average (dialyzed mRNA polyplexes for in vivo application, 66.7 μg/mL mRNA, 1611 N/P 18, 1719 N/P 12) of 108.7 ± 2.0 nm. With “K(8Oc)2-Stp2-K(8Oc)-K(8Oc) [compound 1731]”, where the note is “Cas9 mRNA/sgDMDex23 polyplexes, N/P 24, combined nucleic acid 12.5 μg/mL”, the Pdl is given as 0.201.
